The record followed here is patent publication US20120090043A1, “TARGETS FOR RETROVIRUS ASSOCIATED DISEASES” (priority 2009, published 2012).

The assay concerns HTLV-1 LTR promoter transactivation by HTLV-1 Tax. Kind of assay: Transactivation assay, HTLV-1 LTR luciferase reporter with HTLV-1 Tax. The assay is classed as cell-based. The settings on record: HEK293 cells co-transfected with pHTLV1LTR-Luc, HTLV-1 Tax and the human ORF; relative luciferase activity 24 h post-transfection; positive if >=2 or <=0.5 and p<0.05. The text has this:
The plasmids pHIV1LTR-Luc or pHTLV1LTR-Luc containing a luciferase reporter gene under the control of the HIV-1 or HTLV-1 LTR promoters and plasmids expressing either HIV-1 Tat or HTLV-1 Tax and each human ORF found to interact with viral proteins were transfected into 10^4 HEK293 cells using the calcium phosphate method. Twenty-four hours post-transfection, cells were washed three times with PBS, lysed and luciferase activities determined from two independent transfection experiments in triplicate. We computed a paired t-test to assess the difference of the means between samples with and without the human interactor. For a trial to be considered positive, the relative luciferase activities has to be >=2 or <=0.5, and the p-value of the t-test<0.05.
Many HIV/HTLV-human interactions in our data set (130/212) involved the retroviral transactivator proteins HTLV-1 Tax (57/212), HTLV-2 Tax2 (49/212), HIV-1 Tat (10/212) and HIV-2 Tat (14/212). Human proteins interacting with viral transactivators likely influence Tat or Tax transactivation. […] Co-transfection of interacting human ORFs identified 71 proteins (54% of the 131 human targets in our data set) that regulated HIV (26.7% of targets), HTLV (37.4% of targets) or both (9.9% of targets) LTR promoter activation by Tat or Tax (see Tables 7 and 8; Table 13 below containing quantitative data on the regulation of transactivation). […]

Regarding “FTH1: human host interactor protein, Gene ID 2495, expressed from transfected ORF vector”, the HTLV_LTR transactiv. is 0.17 fold change.
